Experimental data as given in article PMC6704710, “Preclinical evaluation of 3D185, a novel potent inhibitor of FGFR1/2/3 and CSF-1R, in FGFR-dependent and macrophage-dominant cancer models” (Journal of Experimental & Clinical Cancer Research : CR, 2019).

Chains of the proteins cited; added tags and fusions are not shown. Residues count along the entry.
UniProt P07333, 20-972: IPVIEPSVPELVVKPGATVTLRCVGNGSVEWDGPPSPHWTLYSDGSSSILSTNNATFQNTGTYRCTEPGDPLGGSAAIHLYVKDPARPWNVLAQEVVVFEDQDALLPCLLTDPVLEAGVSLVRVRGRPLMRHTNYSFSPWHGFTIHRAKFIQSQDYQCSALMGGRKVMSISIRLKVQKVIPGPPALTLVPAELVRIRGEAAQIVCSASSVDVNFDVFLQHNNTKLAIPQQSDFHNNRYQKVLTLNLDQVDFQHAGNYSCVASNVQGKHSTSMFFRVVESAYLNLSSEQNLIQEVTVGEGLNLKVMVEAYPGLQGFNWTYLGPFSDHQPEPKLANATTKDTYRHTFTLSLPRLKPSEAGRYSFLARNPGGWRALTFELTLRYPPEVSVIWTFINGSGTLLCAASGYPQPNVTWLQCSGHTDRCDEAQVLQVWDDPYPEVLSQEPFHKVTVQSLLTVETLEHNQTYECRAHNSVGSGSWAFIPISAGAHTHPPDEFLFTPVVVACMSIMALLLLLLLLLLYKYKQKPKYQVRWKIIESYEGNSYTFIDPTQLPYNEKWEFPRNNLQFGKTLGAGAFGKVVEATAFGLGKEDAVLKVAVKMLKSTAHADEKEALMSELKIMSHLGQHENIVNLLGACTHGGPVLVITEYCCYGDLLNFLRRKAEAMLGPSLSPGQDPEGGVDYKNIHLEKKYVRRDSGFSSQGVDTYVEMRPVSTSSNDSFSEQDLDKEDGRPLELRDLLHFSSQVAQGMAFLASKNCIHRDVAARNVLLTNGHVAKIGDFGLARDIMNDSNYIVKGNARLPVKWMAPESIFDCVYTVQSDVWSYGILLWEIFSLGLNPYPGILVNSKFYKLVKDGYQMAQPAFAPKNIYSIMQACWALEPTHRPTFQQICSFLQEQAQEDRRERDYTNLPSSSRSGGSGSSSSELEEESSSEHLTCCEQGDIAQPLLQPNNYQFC

Target: CSF-1R (Homo sapiens, UniProt P07333)
Assay: Z'-LYTE kinase assay
Format: biochemical
Details: mean ± SD

With AZD4547 [reference compound] as the substance, how does the IC50 read?
The IC50 was 40.3 nM.
